# Yeast mating assay B: variants of the scFv Ab-14

The target is the same throughout: PDVDLGDISGINAS, from the HR2 region of SARS-CoV-2 spike.

Each scFv is VH, a (GGGGS)3 linker, VL, as in the parent Ab-14, and differs from it in the CDRs of the heavy chain only.
VH: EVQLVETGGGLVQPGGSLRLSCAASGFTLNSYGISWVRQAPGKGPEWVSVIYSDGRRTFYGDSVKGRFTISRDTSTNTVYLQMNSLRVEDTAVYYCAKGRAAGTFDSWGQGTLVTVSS
VL: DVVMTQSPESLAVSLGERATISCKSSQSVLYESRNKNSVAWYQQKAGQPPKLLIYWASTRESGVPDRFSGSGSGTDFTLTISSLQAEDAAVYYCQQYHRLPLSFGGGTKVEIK

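The variants were designed computationally from a first round of random CDR variants and then made and measured. Group labels follow the data file (Ctrl: baseline library sampled from a position-specific scoring matrix, with some repeated check sequences; Rand: our label for a block that the file lists under HC and that is probably the random mutants of the ten best first-round binders; En: ensemble of fine-tuned language models; GP: Gaussian process model; GPLM: also part of the Gaussian process libraries; HC: hill climbing; Gen: genetic algorithm; Gibbs: Gibbs sampling; a sequence that several methods proposed may carry one label only). In AlphaSeq, yeast of one mating type display the scFv and yeast of the other type display the target. Binding brings cells together so that they mate, and sequencing counts the barcode pairs among the diploids. Scores were corrected for input abundance and mapped to Kd with protein pairs of known affinity run in the same pool. Each pool was mated in six replicate cultures.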

Each variant is given by its three heavy chain CDRs, as the data file delimits them; those of the parent are GFTLNSYGIS, VIYSDGRRTFYGDSVK, GRAAGTFDS.
Kd is apparent (estimated from mating counts) and averaged on the log scale over replicates with a signal. Smaller is tighter.
"nd" marks a missing value. The strain was present, yet no cells mated with the target were sequenced in any replicate, which points to weak or no binding.
Three control strains display no target. For all heavy chain designs, 1% of the pairings with them gave a signal, with a median of 120 nM and one signal in twenty below 7.0 nM, so weak values seen in few replicates may be background.
The authors' rule: three or more of the six replicates give a measured affinity, fewer mean a poor binder.
Values of this round are not directly comparable with the first-round values of the same sequences.

| CDR-H1 | CDR-H2 | CDR-H3 | group | apparent Kd | detected |
|---|---|---|---|---|---|
| GFDLEDYGIS | VIYADGVRTAYSQNSK | GDNGIALDI | En_Gibbs | 250 nM | 1 of 6 |
| GFNLNEYGIS | VIYADGRRTFYSDSVK | GEVGGTFDV | En_HC | 3.7 nM | 5 of 6 |
| GFDLNEYGIS | VIYADGRRTFYTDSVK | GESAGTFDQ | En_HC | 560 pM | 6 of 6 |
| GFDLNSYGIS | VIYSDGKRTFYGDSVK | GNAAGTFDS | GP_Gen | 13 nM | 6 of 6 |
| GFSLNEYGIS | VIYSDGRRTFYYDSVK | GRFAGTFDS | GPLM_HC | nd | 0 of 6 |
| GFNLQEYGIS | VIYADGHRTAYTNKVK | GGESMISVT | En_Gibbs | nd | 0 of 6 |
| GFTLDSYGIS | VIYSDGRRTFYIDSVK | GRAAGTFTS | GP_HC | nd | 0 of 6 |
| GFHLNQYGWS | VIYSDGRDTFYSDSVK | GRAAGFFDS | Rand | nd | 0 of 6 |
| GFELNSYGIS | VIYSDGRRTFYVDSVK | GRNAGTFDS | GPLM_Gibbs | 39 nM | 2 of 6 |
| GFDLNEYGIS | VIYADGRRTFYTDNVK | GQNAGTFDF | En_HC | 1.0 nM | 6 of 6 |
| GFNLNSYGIS | VIYSDGRRTFYGDSVK | GRMAGTFDS | GPLM_Gen | 13 nM | 6 of 6 |
| GFTLNSYGIS | VIYSDGMRTFYVDSVK | GRTAGTFWS | GP_Gibbs | nd | 0 of 6 |
| GFDLNEYGIS | VIYADGMRTSYADSVK | GNVAGTFDL | En_Gen | 250 pM | 6 of 6 |
| GFDLNEYGIS | VIYADGRRTFYSDSVK | GNNGGTFDM | En_HC | 1.3 nM | 6 of 6 |
| GFDLNSYGIS | VIYSDGRRTFYGDSVK | GRTAGTFDK | GPLM_Gibbs | 730 pM | 6 of 6 |
| GFSLNEYGIS | VIYADGMRTYYTESVK | GNINDQLFV | En_Gibbs | nd | 0 of 6 |
| GNTLNEYGIS | VIYSDGRRTFYTDSVK | GRHAGTFDS | GP_HC | 29 nM | 2 of 6 |
| GFDLNSYGIS | VIYSDGRRTFYCDSVK | GQLAGTFDS | GP_HC | 9.3 nM | 6 of 6 |
| GFDLNSYGIS | VIYSDGRRTFYHDSVK | GRSAGTFDS | GP_Gen | 11 nM | 6 of 6 |
| GFDLDEYGIS | VIYADGKRTAYADDVK | GETAGTFDV | En_Gen | 1.1 nM | 6 of 6 |
| GEDLQEYGVS | VIYADGRRMVYINSVK | GGSTGTFDF | En_Gibbs | nd | 0 of 6 |
| GFTLNSYGIS | VIYSDGRRTFYGDAVK | GRAATTFDS | Ctrl | nd | 0 of 6 |
| GFDLNEYGIS | VIYADGRRTAYSDSVK | GTVAGTFDV | En_HC | 520 pM | 6 of 6 |
| GFDLDEYGIS | VIYADGMRTFYADSVK | GNNAGTFLS | En_HC | 7.0 nM | 6 of 6 |
| GFDLDEYGIS | VIYADGMRTFYADSVK | GEVAGTFDV | En_Gen | 390 pM | 6 of 6 |
| GFDLDEYGIS | VIYADGKRTFYADSVK | GNVAGTFDI | En_Gen | 280 pM | 6 of 6 |

The remaining entries, values ahead:

| apparent Kd | detected | CDR-H1 | CDR-H2 | CDR-H3 | group |
|---|---|---|---|---|---|
| nd | 0 of 6 | GFTLNSYGIQ | VIYSDGRRTFYGDSVK | GRAAGTFDC | Ctrl |
| 280 pM | 6 of 6 | GFDLNEYGIS | VIYADGSRTAYTDSVK | GNQAGTFDV | En_Gen |
| 4.6 nM | 6 of 6 | GFDLNEYGIS | VIYADGRRTAYSDKVK | GNFGGTFDI | En_HC |
| 490 pM | 6 of 6 | GFDLNEYGIS | VIYADGRRTFYVDSVK | GKNAGTFDV | En_HC |
| 2.4 nM | 6 of 6 | GFEIQDYGIS | VIYADGLRTSYSNKFK | GIIAGTFTS | En_Gibbs |
| nd | 0 of 6 | GFTINSGGIS | VIYSDGKRTFYGDSVK | GRAAGTFDS | Ctrl |
| 1.3 nM | 6 of 6 | GFSLNSYGIS | VIYSDGRRTFYADSVK | GRTAGTFDS | GPLM_Gen |
| 3.0 nM | 6 of 6 | GFDLNSYGIS | VIYSDGRRTFYGDSVR | GRLAGTFDS | Ctrl |
| nd | 0 of 6 | GFPLNSYGYS | VIYSDGRRTFYGDSVK | GRAEGTFDD | Ctrl |
| 38 nM | 5 of 6 | GFTLNGYGIS | VIYSDGRRTFYCDSVK | GPAAGYFDS | Rand |
| nd | 0 of 6 | GFTLNSYGIS | VIYSDGQRTFYGDSVK | GQTAGTFDK | GP_Gibbs |
| 790 pM | 6 of 6 | GFDLNEYGIS | VIYSDGRRTFYGDSVK | GWTAGTFDS | GP_Gibbs |
| 1.9 nM | 6 of 6 | GFNLNEYGIS | VIYADGRRTFYADSVK | GEIAGTFIM | En_HC |
| 43 nM | 3 of 6 | RFTLNSYGIS | VIYSDGRRTFYIDSVK | GRVAGTFDS | GP_HC |
| 110 nM | 4 of 6 | GFTLNEYGIS | VIYSDGRRTGYTDCVK | GRFAGTFDS | Rand |
| 25 nM | 1 of 6 | TFTLNSYGIS | VIYSDGRRTFYGDSVK | GRHGGTFDS | Ctrl |
| 5.3 nM | 6 of 6 | GFTLNEYGIS | VIYSDGMRTFYTDSVK | GRFAGTFDS | GPLM_HC |
| nd | 0 of 6 | GFHLQSYGIS | VIYSDGRRTFYIDSVK | GRSAGTFDL | Ctrl |
| 1.5 nM | 6 of 6 | GFDLNSYGIS | VIYSDGRRTFYADSVK | GRTAGTFDS | GPLM_Gen |
| 25 nM | 6 of 6 | GFDLDEYGIS | VIYADGMRTVYADSVK | GNNAGTFDV | En_Gen |
| 37 nM | 3 of 6 | GFTLNDYGIS | VIYSDGMRTFYSDSVK | GRAAGTFDS | GPLM_HC |
| 150 pM | 6 of 6 | GFDLNEYGIS | VIYADGRRTFYADSVK | GSQAGTFNM | En_HC |
| nd | 0 of 6 | GFEIQEFGIS | VIYADGRRTAYAENVK | GTLGGTFTT | En_Gibbs |
| 1.8 nM | 6 of 6 | GFTLDSYGIS | VIYSDGRRTFYADSVK | GQAAGTFDS | GPLM_Gen |
| nd | 0 of 6 | GFSMNSYGIS | VIYSDGRRTTYSDSVK | GRAAGTFWE | Ctrl |
| 10 nM | 5 of 6 | GFDLEEMGIS | VIYADGARKVYTNSVK | GGFGGQMNV | En_Gibbs |
| 310 pM | 6 of 6 | GFDLNEYGIS | VIYADGKRTFYADSVK | GQAAGTFDE | En_HC |

The first 6 entries again:

CDR-H1,CDR-H2,CDR-H3,group,apparent Kd,detected
GFDLEDYGIS,VIYADGVRTAYSQNSK,GDNGIALDI,En_Gibbs,250 nM,1 of 6
GFNLNEYGIS,VIYADGRRTFYSDSVK,GEVGGTFDV,En_HC,3.7 nM,5 of 6
GFDLNEYGIS,VIYADGRRTFYTDSVK,GESAGTFDQ,En_HC,560 pM,6 of 6
GFDLNSYGIS,VIYSDGKRTFYGDSVK,GNAAGTFDS,GP_Gen,13 nM,6 of 6
GFSLNEYGIS,VIYSDGRRTFYYDSVK,GRFAGTFDS,GPLM_HC,nd,0 of 6
GFNLQEYGIS,VIYADGHRTAYTNKVK,GGESMISVT,En_Gibbs,nd,0 of 6

Data: MIT Lincoln Laboratory AlphaSeq set, Li et al. 2023, doi:10.1038/s41467-023-39022-2, as distributed in FLAb.